# scFv variants of Ab-14 (heavy chain) against a SARS-CoV-2 spike peptide

Reference: Li et al. 2023, doi:10.1038/s41467-023-39022-2. File: FLAb, binding data.

Binding partner: SARS-CoV-2 spike HR2 peptide, sequence PDVDLGDISGINAS.

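The parent was found by panning a naive human phage display library on the peptide. The variants were designed computationally from a first round of random CDR variants and then made and measured. Several design methods are mixed in this list. The scFvs were displayed on barcoded MATa yeast, the peptide on MATalpha yeast. Binding brings cells together so that they mate, and sequencing counts the barcode pairs among the diploids. Read counts were normalised to the haploid input and turned into Kd by a linear fit to BCL2-family pairs of known affinity, for each replicate. The assay was run in six technical replicates.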

Ab-14 is the parent antibody, in scFv form: VH, then a 15-residue (Gly4Ser)3 linker, then VL. The light chain is unchanged in all variants.
VH: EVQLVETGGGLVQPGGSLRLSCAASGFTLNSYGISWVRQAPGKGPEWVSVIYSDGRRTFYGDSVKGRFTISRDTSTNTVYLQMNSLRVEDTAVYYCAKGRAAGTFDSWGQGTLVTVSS
VL: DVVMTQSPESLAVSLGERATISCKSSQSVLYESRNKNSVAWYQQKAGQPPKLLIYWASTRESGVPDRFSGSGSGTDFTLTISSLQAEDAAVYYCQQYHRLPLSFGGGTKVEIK

Substitutions are numbered in sequence along the VH above, starting at 1 (not Kabat).
This list holds designs with at most six substitutions.
Values are apparent Kd, the geometric mean of the replicates that gave a signal; lower means stronger binding.
A pair that was not seen in any replicate is written "nd"; this usually means weak binding, but a binder can also be missed.

The variant S31E+D62L+G103V+S107Q showed nd (0 of 6 replicates; controls 0 of 18).
The variant R56E+G61T showed 4.5 nM (6 of 6 replicates; controls 0 of 18).
The variant S31E+G103L+S107G showed nd (0 of 6 replicates; controls 0 of 18).
The variant G61N+S107P showed 150 nM (1 of 6 replicates; controls 0 of 18).
The variant R56K+S63H+A101T showed nd (0 of 6 replicates; controls 0 of 18).
The variant S53A+G61H showed 610 pM (6 of 6 replicates; controls 0 of 18).
The variant T28A+R100Q+A101S showed nd (0 of 6 replicates; controls 0 of 18).
The variant F27E+G61D+T104D showed nd (0 of 6 replicates; controls 0 of 18).
The variant T28H+G61H+S63A showed nd (0 of 6 replicates; controls 0 of 18).
The variant N30Y+S31E+S107L showed 9.0 nM (1 of 6 replicates; controls 0 of 18).
The variant T28S+G61I+R100S showed 3.5 nM (6 of 6 replicates; controls 0 of 18).
The variant S31Q+R57L+G61S+T104F showed nd (0 of 6 replicates; controls 0 of 18).
The variant S31D+D106R+S107I showed nd (0 of 6 replicates; controls 0 of 18).
The variant S31Q+R100Y showed 120 nM (1 of 6 replicates; controls 1 of 18).
The variant T28D+G61K+R100Q+S107A showed 1.2 nM (6 of 6 replicates; controls 1 of 18).
The variant N30D+Y32L+F105A+D106L showed nd (0 of 6 replicates; controls 0 of 18).
The variant G26K+R100K+A101V+S107T showed 14 nM (2 of 6 replicates; controls 1 of 18).
The variant S31D+I34D+F59T+G103L+D106I showed nd (0 of 6 replicates; controls 0 of 18).
The variant N30D+R57A+F105A+D106L showed nd (0 of 6 replicates; controls 0 of 18).
The variant S53A+F59Y+S107Q showed 3.3 nM (6 of 6 replicates; controls 0 of 18).
The variant F27E+S63A+A101F showed 130 nM (5 of 6 replicates; controls 0 of 18).
The variant T28D+S63A+A101T+S107M showed 7.3 nM (5 of 6 replicates; controls 0 of 18).
The variant T28D+G61T+R100Q+S107L showed 11 nM (6 of 6 replicates; controls 0 of 18).
The variant F105V showed nd (0 of 6 replicates; controls 0 of 18).
The variant T28N+A101T+G103D+D106S showed nd (0 of 6 replicates; controls 0 of 18).
The variant T28S+S31E+G61K+R100P+S107R showed 78 nM (1 of 6 replicates; controls 0 of 18).
The variant G61I+R100Q+S107L showed 43 nM (1 of 6 replicates; controls 1 of 18).
The variant T28Q+G61S+R100S showed 29 nM (6 of 6 replicates; controls 0 of 18).
The variant T28N+S63R+R100E showed 14 nM (6 of 6 replicates; controls 0 of 18).
The variant T28Q+S31E+G61A+R100K showed 1.4 nM (6 of 6 replicates; controls 0 of 18).
The variant T28C+R56P+G99R+T104W+D106N showed nd (0 of 6 replicates; controls 0 of 18).
The variant F27L+T58A showed nd (0 of 6 replicates; controls 0 of 18).
The variant T28Q+S31E+A101E+S107V showed 910 pM (6 of 6 replicates; controls 1 of 18).
The variant T28D+S31M+R100E+S107E showed 6.5 nM (6 of 6 replicates; controls 1 of 18).
The variant R56K+G61S+A102G showed 2.2 nM (6 of 6 replicates; controls 0 of 18).
The variant S31D+G61I+S63T+R100N showed 6.8 nM (6 of 6 replicates; controls 0 of 18).
The variant F59S+G61T+T104L showed nd (0 of 6 replicates; controls 1 of 18).
The variant T28F+S31D+R100T+A101V showed 1.0 nM (6 of 6 replicates; controls 0 of 18).
The variant S31D+G61S+R100Q+A101D showed 71 nM (6 of 6 replicates; controls 1 of 18).

3 of these entries, quoted again:

The variant N30D+Y32L+F105A+D106L showed nd (0 of 6 replicates; controls 0 of 18).
The variant S31E+D62L+G103V+S107Q showed nd (0 of 6 replicates; controls 0 of 18).
The variant S31Q+R100Y showed 120 nM (1 of 6 replicates; controls 1 of 18).

Nonspecific signal, from three strains lacking the peptide, appeared in 1% of pairings of all heavy chain designs, centred on 120 nM (5% of these signals below 7.0 nM); values are not corrected for it. The control count says in how many pairings with the empty strains this scFv gave a signal.
The authors' rule: three or more of the six replicates give a measured affinity, fewer mean a poor binder.
Of ten entries with the parent sequence, four were seen in most replicates (averages 2.2 nM to 240 nM), three in one and three in none, so single entries are noisy.
A sequence measured in both rounds can read differently, since the two assays cover different ranges.